Measured values from patent US20100298377A1, “NOVEL SUBSTITUTED INDAZOLES, THE PREPARATION THEREOF AND USE OF SAME IN THERAPEUTICS” (SANOFI-AVENTIS, priority 2007, published 2010).

Protein sequences, listed by entry. Tags and fused reporters are not part of them. Residues count along the entry.
UniProt P31749, 118-480 S473D limits assumed: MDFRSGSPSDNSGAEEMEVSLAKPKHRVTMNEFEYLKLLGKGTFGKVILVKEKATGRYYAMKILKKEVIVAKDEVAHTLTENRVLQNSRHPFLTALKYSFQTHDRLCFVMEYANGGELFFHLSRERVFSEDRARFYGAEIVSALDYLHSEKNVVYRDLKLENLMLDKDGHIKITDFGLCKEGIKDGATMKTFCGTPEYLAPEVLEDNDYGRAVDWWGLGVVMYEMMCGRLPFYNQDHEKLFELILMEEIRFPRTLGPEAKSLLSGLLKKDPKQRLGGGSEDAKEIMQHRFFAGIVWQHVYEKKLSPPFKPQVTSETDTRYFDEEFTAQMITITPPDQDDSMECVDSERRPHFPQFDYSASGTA

Target: AKT1 (Homo sapiens, UniProt P31749, S473D)
Experiment: Determination of the IC50 for AKT1 (HTRF)
Assay type: biochemical
Details: AKT1 without PH domain, activated by PDK1
Procedure: Determination of the IC50 for AKT1
The inhibitory potential of the compounds is evaluated by HTRF, a time-resolved fluorescence technique based on non-radiative energy transfer (FRET). […] This phosphorylation allows the kinase activity of AKT1 to be activated.
Starting with a 10 mM solution of inhibitors, 3 μl are taken and placed in a 96-well polypropylene plate containing 27 μl of 100% DMSO. The various test compounds are diluted in cascade by taking 15 μl of compound, to which are added 30 μl of 100% DMSO.
The various reaction components are added in the following manner:
Next, 10 μl of the inhibitor solution are added. Finally, the reaction is initiated by adding 10 μl of a solution containing both 100 μM of ATP and 10 μM of biotinylated peptide. The sequence of this peptide is as follows: biot-[…] (reference Neosystem SP000560). The plate is then covered with a plastic film, agitated and finally incubated at RT for 30 minutes. […] After incubation overnight at 4° C., the plate is read using an Ultra evolution spectrophotometer from Tecan. […] All the tests are performed in duplicate and the mean of the two tests is calculated.
For each point, a delta F is calculated in the following manner:
R(Ratio)=counts665 nm/counts620 nm
ΔF % is calculated by the Tecan Ultra Evolution machine.

1-(1H-Indazol-5-yl)-3-[(1-methylpiperid-2-yl)(phenyl)methyl]urea((S,2S),(R,2R)) [Ex 1]
IC50: 100 to 500 nM

1-(1H-Indazol-6-yl)-3-[(1-methylpiperid-2-yl)(phenyl)methyl]urea((S,2S),(R,2R)) [Ex 2]
IC50: 100 to 500 nM
